Assay [1] deals with NCI-N87 gastric cancer xenograft. Briefly: NCI-N87 gastric cancer xenograft dose-dependent efficacy. The format is in vivo, Balb/C-Nude nude mice. The note with it: 5 mg/kg once a week, 5 doses. Here is the method:
[…] grade were purchased and allowed to acclimatize in the animal breeding room for about a week. After NCI-N87 cells grew to the logarithmic growth phase, they were digested with trypsin, centrifuged, and then collected. The cells were then washed with PBS buffer 2-3 times, then resuspended in PBS buffer and counted. The cell density was then adjusted to 2*10^8 cells/mL. The Matrigel matrix gel was removed from the refrigerator at -20° C. and melted on ice in advance, and the cell suspension was mixed with the Matrigel matrix gel according to a volume of 1:1. Based on the amount of 1*10^7 cells, a 1 mL syringe was used to aspirate the corresponding volume of cell suspension and subcutaneously inoculate it into the right axillary area of nude mice, with pressure applied to the needle puncture site for 30 s after inoculation to prevent the leakage of the cell solution. After inoculation, a significant subcutaneous papule was observed. The inoculated mice were observed regularly and tumor growth was monitored. […] After grouping, the control group was given empty liposomes via the caudal vein. […] The body weight and tumor growth curve of the mice were recorded every other day, and the mice were euthanized after the end of dosing. […]

Assay [2] concerns MCF-7 breast cancer xenograft. Put plainly: MCF-7 breast cancer (HER2-low) xenograft pharmacodynamics. The format is in vivo, Balb/C-Nude nude mice. Conditions: MCF-7 xenograft; 5 mg/kg once a week, 5 doses. As to the method:
The MCF-7 breast cancer cell line with low cell-surface HER2 expression was selected to construct a Balb/C-Nude nude mouse xenograft model. […] Construction of NCI-N87 Breast Cancer Balb/C-Nude Nude Mouse Xenograft Model […] After grouping, the control group was given empty liposomes via the caudal vein. The nude mice in the Formulation A doxorubicin-loaded liposome group were given a 2 mg/kg dose of doxorubicin-loaded liposome with a drug-to-lipid ratio of 0.17 via the caudal vein according to body weight; the nude mice in the 10-[…] group were also similarly given 2, 5 and 10 mg/kg doses of HER2 Fab antibody-targeted Formulation C doxorubicin-loaded liposome via the caudal vein according to body weight; at the same time, the trastuzumab group was set as the control group and given 5 mg/kg once a week and a total of 5 doses were administered. The body weight and tumor growth curve of the mice were recorded every other day, and the mice were euthanized after the end of dosing. The efficacy evaluation method was the same as that in 10.2.

trastuzumab: the tumor inhibition rate in assay [1] is 14.49%; in assay [2], 2.91%.

The values are drawn from US20260115313A1, “ANTIBODY-CONJUGATED LIPOSOME” (Highfield Biopharmaceuticals Corporation, priority 2021, published 2026).
